# Values quoted from earlier work, collected in patent US20100136096A1, “Systems for modulating inflammation” (Searete LLC, a limited liability corporation of the State …, priority 2008, published 2010).
# The chains behind the UniProt entries cited, without tags or fusion partners. Residues count along the entry.
# UniProt P10721, 26-976: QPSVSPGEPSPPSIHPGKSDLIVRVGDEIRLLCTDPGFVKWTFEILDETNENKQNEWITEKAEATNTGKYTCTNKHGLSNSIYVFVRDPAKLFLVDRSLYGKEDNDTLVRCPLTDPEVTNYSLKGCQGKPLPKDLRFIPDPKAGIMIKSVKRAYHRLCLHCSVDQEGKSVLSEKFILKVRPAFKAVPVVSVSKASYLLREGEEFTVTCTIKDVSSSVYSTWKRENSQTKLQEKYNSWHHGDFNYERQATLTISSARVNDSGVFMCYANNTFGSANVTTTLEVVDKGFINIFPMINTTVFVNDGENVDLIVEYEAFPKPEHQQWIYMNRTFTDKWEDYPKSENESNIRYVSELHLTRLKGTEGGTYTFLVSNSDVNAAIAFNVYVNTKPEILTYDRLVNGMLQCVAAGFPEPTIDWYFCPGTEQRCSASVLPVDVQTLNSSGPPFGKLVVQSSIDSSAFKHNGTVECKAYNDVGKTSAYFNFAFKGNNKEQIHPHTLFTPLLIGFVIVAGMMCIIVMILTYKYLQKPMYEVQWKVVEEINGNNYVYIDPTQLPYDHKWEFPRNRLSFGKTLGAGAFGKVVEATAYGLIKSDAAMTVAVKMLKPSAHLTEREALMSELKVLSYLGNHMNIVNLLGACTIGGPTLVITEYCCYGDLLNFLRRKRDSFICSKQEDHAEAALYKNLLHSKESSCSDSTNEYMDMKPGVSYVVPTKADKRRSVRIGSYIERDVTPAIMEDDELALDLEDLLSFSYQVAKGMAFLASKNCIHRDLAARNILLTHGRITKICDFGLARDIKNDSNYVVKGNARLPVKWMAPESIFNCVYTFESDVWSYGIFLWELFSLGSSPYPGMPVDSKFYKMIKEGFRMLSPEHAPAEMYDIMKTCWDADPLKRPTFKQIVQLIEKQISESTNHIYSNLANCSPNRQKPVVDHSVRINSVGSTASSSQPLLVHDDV
# UniProt P09619, 33-1106: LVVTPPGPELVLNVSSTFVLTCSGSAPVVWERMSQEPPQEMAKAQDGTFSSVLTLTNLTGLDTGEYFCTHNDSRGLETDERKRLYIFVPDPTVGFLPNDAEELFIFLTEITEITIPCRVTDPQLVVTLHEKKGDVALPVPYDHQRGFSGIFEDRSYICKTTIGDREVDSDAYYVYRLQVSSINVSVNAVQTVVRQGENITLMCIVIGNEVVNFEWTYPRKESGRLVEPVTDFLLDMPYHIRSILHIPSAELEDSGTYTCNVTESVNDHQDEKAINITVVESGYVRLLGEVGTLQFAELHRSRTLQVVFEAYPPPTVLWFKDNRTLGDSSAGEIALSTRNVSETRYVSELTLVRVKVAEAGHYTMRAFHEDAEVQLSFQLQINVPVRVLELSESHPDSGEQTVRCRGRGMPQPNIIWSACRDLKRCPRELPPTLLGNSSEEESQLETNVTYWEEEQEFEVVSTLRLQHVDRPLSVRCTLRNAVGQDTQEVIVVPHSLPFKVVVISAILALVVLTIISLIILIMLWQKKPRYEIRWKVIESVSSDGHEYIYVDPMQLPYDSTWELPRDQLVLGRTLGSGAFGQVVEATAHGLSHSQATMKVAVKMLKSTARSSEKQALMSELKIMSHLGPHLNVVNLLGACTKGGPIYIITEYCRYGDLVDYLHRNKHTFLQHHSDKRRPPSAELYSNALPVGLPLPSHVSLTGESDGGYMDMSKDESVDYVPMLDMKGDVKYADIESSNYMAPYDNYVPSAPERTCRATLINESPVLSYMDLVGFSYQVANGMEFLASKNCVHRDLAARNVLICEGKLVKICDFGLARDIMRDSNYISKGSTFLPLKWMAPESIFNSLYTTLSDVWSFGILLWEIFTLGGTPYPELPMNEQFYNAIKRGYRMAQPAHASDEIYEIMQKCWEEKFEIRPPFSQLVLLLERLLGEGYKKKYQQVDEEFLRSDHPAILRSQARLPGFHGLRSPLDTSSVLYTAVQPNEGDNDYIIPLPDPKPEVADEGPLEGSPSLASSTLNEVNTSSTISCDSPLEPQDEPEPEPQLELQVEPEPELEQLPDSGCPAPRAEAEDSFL
# Assays:
# c-Kit = c-Kit (Homo sapiens, UniProt P10721); conditions: at nanomolar concentrations
# PDGFβ = PDGFβ (Homo sapiens, UniProt P09619); conditions: at nanomolar concentrations
smiles,measurement,setting,value
"Cc1nc(Nc2ncc(C(=O)Nc3c(C)cccc3Cl)s2)cc(N2CCN(CCO)CC2)n1.O [dasatinib, N-(2-chloro-6-methylphenyl)-2-[[6-[4-(2-hydroxyethyl)-1-piperazinyl]-2-methyl-4-pyrimidinyl]amino]-5-thiazolecarboxamide, monohydrate]",inhibition of c-Kit,c-Kit,inhibits
same,inhibition of PDGFβ,PDGFβ,inhibits
